# Source: patent publication US20240335539A1, “MODULATION OF BCL-2 TO ENHANCE CHIMERIC ANTIGEN RECEPTOR CANCER IMMUNOTHERAPY EFFICACY” (The Trustees of the University of Pennsylvania, priority 2021, published 2024)
# Test system: CART19-BCL2(WT)-tEGFR
# Experiment: Depletion of tEGFR-expressing CART cells by anti-EGFR antibody, 24h
# Assay type: cell-based, human
# Details: vs isotype control
# Text: FIGS. 26A-26H illustrate the finding that increased BCL-2 expression in T cells from CART apheretic products is associated with positive clinical outcomes in lymphoma patients at long term. FIG. 26A is a schematic description of the approach taken to investigate the relationship between the level of BCL-2 and CART's clinical response. RNA was extracted from T cells from apheretic products of 38 lymphoma patients who received CART19 immunotherapy (CTL019, i.e., tisagenleucleucel) in the clinical trial (NCT02030834). Next, BCL-2 mRNA expression was quantified via the nCounter analysis system (NanoString Technologies, Inc, Seattle, WA). FIG. 26B is a volcano plot showing differential gene expression in T cells based on best overall response (CR or NR). […] EGFR: Epidermal growth factor receptor.
# Nevertheless, to further investigate the safety profile of this approach, whether CART19-BCL-2(WT) cells are still sensitive to conventional cytotoxic drugs such as chemotherapy (e.g., doxorubicin) was assessed. […] Furthermore, to enhance the safety profile of CART19-BCL-2(WT) cells, a CART suicide system (Paszkiewicz, et al., The Journal of clinical investigation 2016; 126(11):4262-72) was employed by expressing truncated EGFR into CART19-BCL-2(WT). Whether anti-EGFR antibodies can mediate antibody-dependent cellular cytotoxicity, thereby eradicating CART19-BCL-2(WT), was tested.
substance,measurement,value
anti-EGFR antibodies: anti-EGFR antibody (Cetuximab) used to deplete tEGFR-expressing CART cells,Elimination of BCL-2-expressing CART cells via truncated EGFR,successfully eliminated
